Test results from patent US10941115B2, “Kinase inhibitors” (Oxular Acquisitions Limited, priority 2014, dated 2021).

System: non-mutant kinases
Assay type: binding
Details: 50 nM
From the text: These assays may be conducted by DiscoverX (formerly Ambit; San Diego, Calif.).

**Q.** How did the “KinomeScan Selectivity Score S(1)” value (fraction of non-mutant kinases with % Ctrl <1) turn out when COc1cc(Nc2cc(Oc3ccc(NC(=O)Nc4cc(C(C)(C)C)cc(NS(C)(=O)=O)c4OC)c4ccccc34)ccn2)ccc1P(C)(=O)O [Example 44, (4-((4-((4-(3-(5-(tert-Butyl)-2-methoxy-3-(methylsulfonamido)phenyl)ureido)naphthalen-1-yl)oxy)pyridin-2-yl)amino)-2-methoxyphenyl)(methyl)phosphinic acid] was run?
**A.** 0.002

**Q.** And the “KinomeScan Selectivity Score S(10)” value (fraction of non-mutant kinases with % Ctrl <10)?
**A.** 0.074
